Laboratory results as given in article PMC4183595, “Study on the Main Components Interaction from Flos Lonicerae and Fructus Forsythiae and Their Dissolution In Vitro and Intestinal Absorption in Rats” (PLoS ONE, 2014).

What was measured:
[1] = Rat in vivo pharmacokinetics study after oral administration of product A, B or C; parameters: species or system Male Sprague-Dawley (SD) rats; AUC 0→t in product C group, increased to % compared to that in product A or B groups: concentration or dose not given beside the values; conditions: rats; for AUC 0→∞ / MRT / T 1/2z / T max: 10 mL·kg^−1; for AUC 0→t: oral product C group; for AUC 0→t in product C group, increased to % compared to that in product A or B groups: oral, product C versus product A or B; for C max: mean±SD
Protocol: Product A (extract mixed with FLJ extract and water, (1∶1, v / v )), product B (extract mixed with FF extract and water, (1∶1, v / v )) and product C (extract mixed with FLJ and FF extracts, (1∶1, v / v )) were given to oral administration to rats, respectively.
Male SD rats (∼250 g) were kept in an environmentally controlled breeding room (temperature: 20±2°C, relative humidity: 60±5%) for 1 week. […] The rats were randomly divided into three groups with no less than six rats in each group to receive various administrations at a single oral dose (10 mL·kg^−1) by gastric gavage. […] Subsequently, plasma was prepared by centrifugation at 1,816×g, 4°C for 7 min, and immediately analyzed or stored at −70°C for further analysis.
The main pharmacokinetic parameters including the peak plasma concentration (C max), the time to C max (T max), the AUC from 0 to infinity (AUC 0–∞), the AUC form 0 to time (AUC 0–t), mean residence time (MRT), and terminal elimination half-life (T 1/2z) were calculated by the non-compartmental analysis of plasma concentration vs. time data using the “DAS 2.1.1” software (Mathematical Pharmacology Professional Committee of China, Shanghai, China).

Caco-2 cells = assay: In vitro Caco-2 monolayer model, apical to basolateral transport (P app); format: in vitro ADME, human
Protocol: Caco-2 cells were cultured in high glucose DMEM with 10% fetal bovine serum, 1% nonessential amino acids. Cells were cultured in a humidified atmosphere of 5% CO2 at 37°C. After reaching 80% confluens, Caco-2 cells were harvested with 0.05% trypsin-EDTA solution and seeded on top of CC inserts in 6-well plates, which has a surface area of 4.2 cm^2, at a density of 1.0×10^5 cells/cm^2. The protocols for cell culture in Transwell inserts were similar to those described previously.
Hank’s balanced salt solution (HBSS) was used as the transport buffer for the transport study in Caco-2 cells monolayer model. It was prepared by dissolving 9.5 grams of commercial available HBSS powder in 1000 mL water.
Cell culture experiments were described previously. Briefly, after culture medium was aspirated, the cell monolayers were washed three times with blank HBSS. […] The monolayers were incubated with the blank HBSS for 1 h with 37°C. Thereafter the incubation medium was aspirated. Afterwards, a solution containing the compound was loaded onto the apical side. The amounts of transported compound were measured as a function of time. […] The samples were taken at 0, 1, 2, 3 and 4 h after incubation. At the end of the transport experiment, integrity of the monolayer was monitored by TEER value.

P-gp, MRP2 and BCRP = test system: P-gp, MRP2 and BCRP; parameters: method as in PMID 24035225, PMID 25442264; conditions: previous study; ref [21]–[22]; cited from earlier work
[2] = single oral dose 10 mL·kg^−1 of product B (FF extract and water 1:1)
[3] = single oral dose 10 mL·kg^−1 of product C (FLJ and FF extracts 1:1)

| Substance | AUC 0→∞ ([1]; oral product B) [ng·min/mL] | MRT ([1]; oral product B) [h] | T 1/2z ([1]; oral product B) [h] | T max ([1]; oral product B) [h] | AUC 0→t [1] [ng⋅min/mL] | AUC 0→∞ ([1]; oral product C) [ng·min/mL] | MRT ([1]; oral product C) [h] | T 1/2z ([1]; oral product C) [h] | T max ([1]; oral product C) [h] | AUC 0→t in product C group, increased to % compared to that in product A or B groups [1] [%] | C max [1, 2] [ng/mL] | C max [1, 3] [ng/mL] | P app, product C group versus product B group (Caco-2 cells) | P app in product C group, % compared with that in product B group (Caco-2 cells; HBSS pH 6.0, apical to basolateral) [%] | efflux transporters influencing the intestinal absorption (P-gp, MRP2 and BCRP) |
| --- | --- | --- | --- | --- | --- | --- | --- | --- | --- | --- | --- | --- | --- | --- | --- |
| Phillyrin | 389.31 ± 94.693 | 5.27 ± 0.197 | 5.68 ± 0.32 | 0.167 ± 0 | 3374.0±265.32 | 1316.5 ± 171.15 | 8.68 ± 0.922 | 7.5 ± 0.873 | 0.167 ± 0 | 213 | 2.24 ± 0.978 | 4.41 ± 0.0769 | no significant difference |  |  |
| Forsythoside B | 3249.3 ± 268.96 | 3.3 ± 0.445 | 4.32 ± 0.607 | 0.167 ± 0 | 5642.5±122.33 | 5223.2 ± 666.32 | 6.33 ± 0.722 | 7.08 ± 0.845 | 0.167 ± 0 | 175 | 25.5 ± 9.37 | 46.6 ± 4.91 |  | 210 | affected by P-gp and MRP2, not BCRP |
